# Measured values: patent publication US9453051B2, “Cyclosporin derivatives” (priority 2011, dated 2016)
# Molecular target: calcineurin (Homo sapiens, UniProt P62937+P63098+Q08209)
# Test: Inhibition of the phosphatase activity of calcineurin (scintillation-proximity-assay, in presence of Cyp18);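 also: calcineurin dephosphorylation of a ³³P-labelled RII phosphopeptide, captured on streptavidin-coated wells and read by scintillation counting, with uninhibited enzyme activity taken as 100%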
row,Structure (SMILES),IC50 [µM]
1,CC[C@@H]1NC(=O)[C@H]([C@H](O)[C@H](C)Cc2nc3cc(C(=O)NCCOCCOCCN)ccc3[nH]2)N(C)C(=O)[C@H](C(C)C)N(C)C(=O)[C@H](CC(C)C)N(C)C(=O)[C@H](CC(C)C)N(C)C(=O)[C@@H](C)NC(=O)[C@H](C)NC(=O)[C@H](CC(C)C)N(C)C(=O)[C@H](C(C)C)NC(=O)[C@H](CC(C)C)N(C)C(=O)CN(C)C1=O [Compound 66],> 10
2,CC[C@@H]1NC(=O)[C@H]([C@H](O)[C@H](C)Cc2nc3ccc4c(S(=O)(=O)O)cccc4c3[nH]2)N(C)C(=O)[C@H](C(C)C)N(C)C(=O)[C@H](CC(C)C)N(C)C(=O)[C@H](CC(C)C)N(C)C(=O)[C@@H](C)NC(=O)[C@H](C)NC(=O)[C@H](CC(C)C)N(C)C(=O)[C@H](C(C)C)NC(=O)[C@H](CC(C)C)N(C)C(=O)CN(C)C1=O [Compound 45],> 10
3,CC[C@@H]1NC(=O)[C@H]([C@H](O)[C@H](C)Cc2nc3ccc(C(=O)O)cc3n2C)N(C)C(=O)[C@H](C(C)C)N(C)C(=O)[C@H](CC(C)C)N(C)C(=O)[C@H](CC(C)C)N(C)C(=O)[C@@H](C)NC(=O)[C@H](C)NC(=O)[C@H](CC(C)C)N(C)C(=O)[C@H](C(C)C)NC(=O)[C@H](CC(C)C)N(C)C(=O)CN(C)C1=O [Compound 37],> 10
4,CC[C@@H]1NC(=O)[C@H]([C@H](O)[C@H](C)Cc2nc3nc(S)nc(O)c3[nH]2)N(C)C(=O)[C@H](C(C)C)N(C)C(=O)[C@H](CC(C)C)N(C)C(=O)[C@H](CC(C)C)N(C)C(=O)[C@@H](C)NC(=O)[C@H](C)NC(=O)[C@H](CC(C)C)N(C)C(=O)[C@H](C(C)C)NC(=O)[C@H](CC(C)C)N(C)C(=O)CN(C)C1=O [Compound 17],> 10
5,CCCCOC(=O)c1ccc2[nH]c(C[C@@H](C)[C@@H](O)[C@H]3C(=O)N[C@@H](CC)C(=O)N(C)CC(=O)N(C)[C@@H](CC(C)C)C(=O)N[C@@H](C(C)C)C(=O)N(C)[C@@H](CC(C)C)C(=O)N[C@@H](C)C(=O)N[C@H](C)C(=O)N(C)[C@@H](CC(C)C)C(=O)N(C)[C@@H](CC(C)C)C(=O)N(C)[C@@H](C(C)C)C(=O)N3C)nc2c1 [Compound 11],4.7
6,CC[C@@H]1NC(=O)[C@H]([C@H](O)[C@H](C)Cc2nc3cccc(C(=O)O)c3[nH]2)N(C)C(=O)[C@H](C(C)C)N(C)C(=O)[C@H](CC(C)C)N(C)C(=O)[C@H](CC(C)C)N(C)C(=O)[C@@H](C)NC(=O)[C@H](C)NC(=O)[C@H](CC(C)C)N(C)C(=O)[C@H](C(C)C)NC(=O)[C@H](CC(C)C)N(C)C(=O)CN(C)C1=O [Compound 28],> 10
